## Apparent affinities of Ab-14 variants for a coronavirus HR2 peptide

The measurements come from Li et al. 2023 (doi:10.1038/s41467-023-39022-2) through the FLAb antibody collection.

All variants were tested on one target, the spike HR2 peptide PDVDLGDISGINAS (SARS-CoV-2).

Parent: Ab-14, a human scFv built as VH, the linker GGGGSGGGGSGGGGS, VL. Only the CDRs of the heavy chain vary.
VH: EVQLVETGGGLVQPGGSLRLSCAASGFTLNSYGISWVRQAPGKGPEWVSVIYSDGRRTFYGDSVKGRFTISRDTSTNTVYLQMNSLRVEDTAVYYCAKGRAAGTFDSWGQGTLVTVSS
VL: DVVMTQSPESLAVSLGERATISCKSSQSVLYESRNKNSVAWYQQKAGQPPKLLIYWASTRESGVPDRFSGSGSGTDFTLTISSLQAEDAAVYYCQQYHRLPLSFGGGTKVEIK

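The parent was found by panning a naive human phage display library on the peptide. This is the validation round: designs drawn from the data on random variants, tested in the same kind of assay. Their group label is 14H_GP_Gen (GP: Gaussian process model; Gen: genetic algorithm; a sequence that several methods proposed may carry one label only). The assay is AlphaSeq: two haploid yeast populations carry antibody and antigen on their surface. The frequency of each diploid, read from paired DNA barcodes, reflects how well the two displayed proteins bind. A regression on co-assayed BCL2-family reference pairs converts the normalised counts of each replicate to an apparent Kd. Mating was done six times.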

Variants are written as CDR1, CDR2 and CDR3 of the heavy chain (limits as in the source). Parent: GFTLNSYGIS, VIYSDGRRTFYGDSVK, GRAAGTFDS.
Values are log10 of the apparent Kd in nM; lower means stronger binding.
Replicates are averaged; those with no signal do not enter the mean.
Where no diploid with the target was found in that replicate, the entry reads "nd": below detection, most likely a poor binder, though not proof of it.
Values of this round are not directly comparable with the first-round values of the same sequences.

CDR-H1,CDR-H2,CDR-H3,"replicates, log10 nM",mean log10 Kd (nM),control signals
GFTLNEYGIS,VIYSDGMRTFYGDSVK,GRNAGTFDS,0.66 / -0.12 / -0.28 / -0.02 / 0.62 / 0.31,0.19,0/18
GFGLNEYGIS,VIYSDGRRTFYGDSVK,GRVAGTFDS,1.43 / 0.27 / 0.31 / 0.23 / 0.78 / 1.03,0.68,0/18
GFDLNSYGIS,VIYSDGRRTFYVDSVK,GNAAGTFDA,0.95 / 1.39 / 0.91 / 1.45 / 0.67 / 0.72,1.01,1/18 (2.79)
GFSLNEYGIS,VIYSDGRRTFYMDMVK,GRTAGTFDS,nd / 1.97 / nd / nd / nd / 1.56,1.76,0/18
GFTLNSYGIS,VIYSDGKRTFYGDRVK,GRTAGTFDS,nd / nd / nd / nd / nd / nd,nd,0/18
GFNLNSYGIS,VIYSDGRRTFYKDSVK,GRLAGTFDS,nd / 0.52 / -0.02 / 0.35 / 1.66 / -0.48,0.41,0/18
GFDLNSYGIS,VIYSDGKRTFYKDSVK,GRTAGTFDS,0.39 / 0.78 / -0.07 / -0.01 / 0.38 / 0.47,0.32,0/18
GFDLNSYGIS,VIYSDGRRTFYGDSVK,GNEAGTFDT,0.26 / 0.55 / 0.50 / 0.75 / 0.38 / 0.55,0.50,0/18
GFDLNSYGIS,VIYSDGRRTFYGDQVK,GRNAGTFDS,0.42 / -0.14 / 0.36 / 0.08 / 0.81 / 0.53,0.34,0/18
GFDLNSYGIS,VIYSDGRRTFYKDSVK,GWTAGTFDS,0.24 / 0.14 / -0.42 / -0.31 / -0.17 / 0.19,-0.06,0/18
HFDLNSYGIS,VIYSDGRRTFYGDSVK,GKTAGTFDS,0.71 / 0.30 / 0.43 / 0.77 / 1.04 / 1.13,0.73,1/18 (2.23)
GFTLESYGIS,VIYSDGRRTFYHDSVK,GKAAGTFDS,0.16 / 0.38 / 0.83 / 1.84 / 0.31 / 1.05,0.76,0/18
GFQLNEYGIS,VIYSDGRRTFYQDSVK,GKAAGTFDS,0.35 / 0.85 / 0.07 / 0.76 / 0.85 / 1.11,0.67,0/18
GFNLNSYGIS,VIYSDGRRTFYADSVK,GKTAGTFDS,0.28 / 0.22 / -0.09 / 0.10 / 0.05 / 0.22,0.13,1/18 (3.28)
GFGLNSYGIS,VIYSDGRRTAYGDSVK,GRNAGTFDS,0.66 / 1.61 / 0.88 / 0.99 / 2.59 / 1.57,1.38,0/18
GFELNEYGIS,VIYSDGRRTFYGDSVK,GRMAGTFDT,-0.17 / -1.29 / -0.93 / 0.56 / -0.19 / nd,-0.40,0/18
GFTLNSYGIS,VIYSDGRRTFYGDDVK,GNEAGTFDT,0.29 / 0.10 / -0.16 / 0.31 / 0.27 / 0.51,0.22,0/18
GFELNSYGIS,VIYADGRRTFYGDQVK,GKAAGTFDS,-0.18 / -0.23 / -0.29 / -0.27 / -0.04 / 0.07,-0.16,0/18
GFDLNSYGIS,VIYSDGRRTFYIDSVK,GKAAGTFDA,-0.36 / 0.32 / -0.13 / -0.57 / -0.25 / 0.19,-0.14,0/18
GFELNSYGIS,VIYSDGRRTFYQDDVK,GEAAGTFDS,0.89 / 1.45 / -0.05 / 1.10 / 0.82 / 3.12,1.22,0/18
GFDLNSYGIS,VIYSDGRRTFYDDSVK,GEAAGTFDS,1.19 / 0.89 / 0.24 / 0.32 / 0.45 / 0.51,0.60,1/18 (2.28)
GFELNEYGIS,VIYSDGRRTFYIDSVK,GRAAGTFDK,0.34 / 0.39 / -0.09 / 0.45 / 0.36 / -0.01,0.24,0/18
GFWLNEYGIS,VIYSDGRRTFYGDSVK,GNAAGTFDS,nd / 1.15 / -0.47 / -0.36 / 1.05 / 1.60,0.59,0/18
GEDLNSYGIS,VIYSDGRRTFYGDSVK,GRTAGTFDS,1.38 / 1.10 / 0.79 / 1.63 / 0.63 / 1.53,1.18,0/18
GFDLNEYGIS,VIYSDGRRTMYGDSVK,GRAAGTFDS,0.61 / 0.73 / 0.17 / 1.20 / 0.41 / 0.43,0.59,0/18
GFLLNEYGIS,VIYSDGRRTFYGDSVK,GKAAGTFDS,1.33 / 0.54 / 1.03 / 0.93 / 0.81 / 0.72,0.89,0/18
GFSLNSYGIS,VIYSDGRRTMYGDSVK,GRQAGTFDS,0.88 / 1.15 / 0.76 / 1.35 / 1.32 / 0.81,1.04,0/18
GFSLNSYGIS,VIYSDGRRTFYVDNVK,GNAAGTFDS,nd / nd / 0.74 / 0.11 / 0.58 / nd,0.48,0/18
GFTLNEYGIS,VIYSDGRRTFYHDSVK,GRAAGTFDT,0.45 / 0.63 / 0.44 / 0.30 / 0.77 / 1.20,0.63,0/18
GFDLNSYGIS,VIYSDGRRTFYGDQVK,GRTAGTFDV,1.23 / -0.20 / 0.11 / -0.25 / 1.42 / 0.49,0.47,0/18
GFSLNEYGIS,VIYSDGRRTFYGDSVK,GRTAGTFNS,0.72 / 1.06 / 0.79 / 0.41 / 0.85 / 1.03,0.81,0/18
GFDLNSYGIS,VIYSDGRRTFYADRVK,GEAAGTFDS,0.76 / 0.99 / 0.42 / 0.85 / 0.07 / 0.71,0.63,0/18
GFTLNEYGIS,VIYSDGKRTFYGDSVK,GRQAGTFDS,0.46 / 0.39 / 0.98 / 0.45 / 0.47 / 1.00,0.63,0/18
GFDLNSYGIS,VIYSDGRRTFYADSVK,GNTAGTFDS,1.13 / -0.26 / -0.38 / -0.41 / -0.26 / -0.40,-0.09,0/18
KFELNKYGIS,VIYSDGRRTFYGDSVK,GRTAGTFDS,nd / nd / nd / nd / 2.58 / nd,2.58,0/18
HFDLNSYGIS,VIYSDGRRTFYIDSVK,GNAAGTFDS,0.95 / 1.11 / 0.60 / 0.52 / 0.89 / 0.73,0.80,0/18
GFDLNSYGIS,VIYSDGRRTFYIDSVK,GRVAGTFDS,0.21 / -0.22 / 0.03 / 0.44 / 0.42 / 0.56,0.24,1/18 (2.51)
GFQLNEYGIS,VIYSDGRRTFYGDSVK,GQAAGTFDT,0.79 / 0.70 / 0.71 / 0.53 / 0.77 / 0.95,0.74,0/18
HFELNEYGIS,VIYSDGRRTFYGDSVK,GRTAGTFDS,1.60 / 1.07 / 1.06 / 1.07 / 0.96 / 1.24,1.17,1/18 (1.83)
GFELNSYGIS,VIYADGRRTFYGDSVK,GRTAGTFDA,0.55 / 0.35 / 0.45 / 0.17 / -0.37 / -0.30,0.14,0/18

For reference, 3 entries of the list once more:

CDR-H1,CDR-H2,CDR-H3,"replicates, log10 nM",mean log10 Kd (nM),control signals
GFELNEYGIS,VIYSDGRRTFYIDSVK,GRAAGTFDK,0.34 / 0.39 / -0.09 / 0.45 / 0.36 / -0.01,0.24,0/18
GFNLNSYGIS,VIYSDGRRTFYADSVK,GKTAGTFDS,0.28 / 0.22 / -0.09 / 0.10 / 0.05 / 0.22,0.13,1/18 (3.28)
GFTLNSYGIS,VIYSDGKRTFYGDRVK,GRTAGTFDS,nd / nd / nd / nd / nd / nd,nd,0/18

The authors averaged sequences with at least three values out of six and counted those with two or fewer as poor binders.
Of ten entries with the parent sequence, four were seen in most replicates (averages 0.34 to 2.37), three in one and three in none, so single entries are noisy.
Three control strains display no target. For all heavy chain designs, 1% of the pairings with them gave a signal, with a median of 2.08 and one signal in twenty below 0.84, so weak values seen in few replicates may be background. For each scFv, signals with the empty controls are counted beside the result, with their mean in brackets.